Experimental data: patent publication US20250195530A1, “POLQ INHIBITORS” (ASTRAZENECA AB, priority 2022, published 2025)

By UniProt entry, the sequences of proteins in these tests, tags left out. Residues count along the entry.
UniProt O75417, 1780-2590: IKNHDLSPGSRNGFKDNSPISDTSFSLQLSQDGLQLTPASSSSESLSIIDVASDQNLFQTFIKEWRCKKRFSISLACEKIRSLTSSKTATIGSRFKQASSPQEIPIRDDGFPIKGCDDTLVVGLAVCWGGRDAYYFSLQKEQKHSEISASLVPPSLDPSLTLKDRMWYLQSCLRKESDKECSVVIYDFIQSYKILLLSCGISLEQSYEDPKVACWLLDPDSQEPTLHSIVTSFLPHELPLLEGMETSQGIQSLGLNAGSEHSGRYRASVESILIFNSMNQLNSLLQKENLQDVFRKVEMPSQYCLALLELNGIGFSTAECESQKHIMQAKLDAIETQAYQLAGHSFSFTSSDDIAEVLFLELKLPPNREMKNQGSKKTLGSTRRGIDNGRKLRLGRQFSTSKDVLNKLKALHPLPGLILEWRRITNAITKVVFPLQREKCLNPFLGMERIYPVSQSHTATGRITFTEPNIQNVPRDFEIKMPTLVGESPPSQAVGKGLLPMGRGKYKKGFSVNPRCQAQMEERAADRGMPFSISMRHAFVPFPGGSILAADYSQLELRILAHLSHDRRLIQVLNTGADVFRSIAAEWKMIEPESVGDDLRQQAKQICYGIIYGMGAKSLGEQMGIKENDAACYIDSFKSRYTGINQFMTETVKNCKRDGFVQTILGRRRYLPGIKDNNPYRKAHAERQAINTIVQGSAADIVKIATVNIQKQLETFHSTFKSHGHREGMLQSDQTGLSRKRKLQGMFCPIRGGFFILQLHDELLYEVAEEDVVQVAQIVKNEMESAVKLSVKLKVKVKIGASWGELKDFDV

Target: isolated polymerase domain (I1780-V2590) of DNA polymerase theta (Polθ) (Homo sapiens (Human), UniProt O75417)

SMILES | IC50
CN1CCN(CCOc2ccc(-c3nc4c(OC5(C)CC5)ncnc4n3CCc3ccccc3)c(Cl)c2)CC1 [Example E4, 8-(2-chloro-4-(2-(4-methylpiperazin-1-yl)ethoxy)phenyl)-6-(1-methylcyclopropoxy)-9-phenethyl-9H-purine] | 5.01 nM
CC1(Oc2ncnc3c2nc(-c2ccc(OCCN4CCNCC4)cc2Cl)n3Cc2cc(C(F)(F)F)ccn2)CC1 [Example K8, 8-(2-chloro-4-(2-(piperazin-1-yl)ethoxy)phenyl)-6-(1-methylcyclopropoxy)-9-((4-(trifluoromethyl)pyridin-2-yl)methyl)-9H-purine] | 2 nM
CC(C)Oc1ccc2c(c1)nc(-c1ccc(O)cc1Cl)n2Cc1ccccc1 [Example A1, 4-(1-Benzyl-5-isopropoxy-1H-benzo[d]imidazol-2-yl)-3-chlorophenol] | 5.01 nM
Cc1c(-c2nc3c(OC4(C)CC4)ncnc3n2Cc2ccccc2)ccnc1OCCN1CCNCC1 [Example G14, 9-benzyl-8-(3-methyl-2-(2-(piperazin-1-yl)ethoxy)pyridin-4-yl)-6-(1-methylcyclopropoxy)-9H-purine] | 2.51 nM
CC1(Oc2ncnc3c2nc(-c2ccc(OCCN4C[C@@H]5C[C@H]4CN5)cc2Cl)n3Cc2ccccc2)CC1 [Example R19, 8-(4-(2-((1S,4S)-2,5-diazabicyclo[2.2.1]heptan-2-yl)ethoxy)-2-chlorophenyl)-9-benzyl-6-(1-methylcyclopropoxy)-9H-purine] | 2 nM
C[C@@H](Cn1c(-c2ccc(OCCN3CCNCC3)cc2Cl)nc2c(OC3(C)CC3)ncnc21)c1ccccc1 [Example J10, (R)-8-(2-chloro-4-(2-(piperazin-1-yl)ethoxy)phenyl)-6-(1-methylcyclopropoxy)-9-(2-phenylpropyl)-9H-purine] | 2 nM
CC1(Oc2ncnc3c2nc(-c2ccc(OCCN4CCNC(=O)CC4)cc2Cl)n3Cc2ccccc2)CC1 [Example H21, 1-(2-(4-(9-benzyl-6-(1-methylcyclopropoxy)-9H-purin-8-yl)-3-chlorophenoxy)ethyl)-1,4-diazepan-5-one] | 2.51 nM
Cc1ccnc(Cn2c(-c3ccc(OCc4nnc5n4CCNC5)cc3Cl)nc3c(OC4(C)CC4)ncnc32)c1 [Example T433] | 3.98 nM
CC1(Oc2cccc3c2nc(-c2ccc(OCCN4CCNCC4)cc2Cl)n3Cc2ccccc2)CCC1 [Example P2, 1-benzyl-2-(2-chloro-4-(2-(piperazin-1-yl)ethoxy)phenyl)-4-(1-methylcyclobutoxy)-1H-benzo[d]imidazole] | 6.31 nM
CC(=O)N1CCN(CCCOc2ccc(-c3nc4c(OC5(C)CC5)ncnc4n3Cc3ccccc3)c(Cl)c2)CC1 [Example D22, 1-(4-(3-(4-(9-benzyl-6-(1-methylcyclopropoxy)-9H-purin-8-yl)-3-chlorophenoxy)propyl)piperazin-1-yl)ethan-1-one] | 3.98 nM
CC1(Oc2ncnc3c2nc(-c2ccc(OCCN4CCNC(C)(C)C4=O)cc2Cl)n3Cc2ccccc2)CC1 [Example R16, 1-(2-(4-(9-benzyl-6-(1-methylcyclopropoxy)-9H-purin-8-yl)-3-chlorophenoxy)ethyl)-3,3-dimethylpiperazin-2-one] | 2 nM
CC1(Oc2ncnc3c2nc(-c2ccc(OCCN4C5CNCC4C5)cc2Cl)n3Cc2ccccc2)CC1 [Example R15, 6-(2-(4-(9-benzyl-6-(1-methylcyclopropoxy)-9H-purin-8-yl)-3-chlorophenoxy)ethyl)-3,6-diazabicyclo[3.1.1]heptane] | 2 nM
CC1(Oc2ncnc3c2nc(-c2ccc(CN4CCCC4)cc2Cl)n3Cc2ccccc2)CC1 [Example N5, 9-benzyl-8-(2-chloro-4-(pyrrolidin-1-ylmethyl)phenyl)-6-(1-methylcyclopropoxy)-9H-purine] | 15.8 nM
CC1(Oc2ncnc3c2nc(-c2ccc(O[C@H]4CC[C@@H](C(=O)O)CC4)cc2Cl)n3Cc2cccc(Cl)c2)CC1 [Example T541, (1s,4s)-4-(3-chloro-4-(9-(3-chlorobenzyl)-6-(1-methylcyclopropoxy)-9H-purin-8-yl)phenoxy)cyclohexane-1-carboxylic acid] | 6.31 nM
CC1(Oc2ncnc3c2nc(-c2ccc(OCCN4CCNCC4)cc2Cl)n3Cc2ccc(Cl)cn2)CC1 [Example K3, 8-(2-chloro-4-(2-(piperazin-1-yl)ethoxy)phenyl)-9-((5-chloropyridin-2-yl)methyl)-6-(1-methylcyclopropoxy)-9H-purine] | 5.01 nM
CC1(Oc2ncnc3c2nc(-c2ccc(OCCN4CC5(CC(O)C5)C4)cc2Cl)n3Cc2ccccc2)CC1 [Example H16, 2-(2-(4-(9-benzyl-6-(1-methylcyclopropoxy)-9H-purin-8-yl)-3-chlorophenoxy)ethyl)-2-azaspiro[3.3]heptan-6-ol] | 2.51 nM
CC1(Oc2ncnc3c2nc(-c2ccc(OCCN4CC5(CCN5)C4)cc2Cl)n3Cc2ccccc2)CC1 [Example H18, 8-(4-(2-(1,6-diazaspiro[3.3]heptan-6-yl)ethoxy)-2-chlorophenyl)-9-benzyl-6-(1-methylcyclopropoxy)-9H-purine] | 2.51 nM
CC1(Oc2ncnc3c2nc(-c2ccc(OCCN4CCNC5(CC5)C4)cc2Cl)n3Cc2ccccc2)CC1 [Example R17, 8-(4-(2-(4,7-diazaspiro[2.5]octan-7-yl)ethoxy)-2-chlorophenyl)-9-benzyl-6-(1-methylcyclopropoxy)-9H-purine] | 2 nM
CC1(Oc2ncnc3c2nc(-c2ccc(OCCN4CCNCC4)cc2Cl)n3Cc2ncccc2C#N)CC1 [Example K11, 2-((8-(2-chloro-4-(2-(piperazin-1-yl)ethoxy)phenyl)-6-(1-methylcyclopropoxy)-9H-purin-9-yl)methyl)nicotinonitrile] | 20 nM
CN1CCC(Oc2cccc(-c3nc4c(OC5(C)CC5)ncnc4n3Cc3ccccc3)c2Cl)CC1 [Example D9, 9-benzyl-8-(2-chloro-3-((1-methylpiperidin-4-yl)oxy)phenyl)-6-(1-methylcyclopropoxy)-9H-purine] | 2.51 nM
CC1(Oc2ncnc3c2nc(-c2ccc(OCCN4CCNCC4)cc2Cl)n3Cc2cc(C3CC3)ccn2)CC1 [Example S3, 8-(2-chloro-4-(2-(piperazin-1-yl)ethoxy)phenyl)-9-((4-cyclopropylpyridin-2-yl)methyl)-6-(1-methylcyclopropoxy)-9H-purine] | 2 nM
Cc1cc(OCCN2CCN(C)CC2)ncc1-c1nc2cc(OC(C)C)ccc2n1Cc1ccc(Cl)cc1 [Example A5, 1-(4-chlorobenzyl)-5-isopropoxy-2-(4-methyl-6-(2-(4-methylpiperazin-1-yl)ethoxy)pyridin-3-yl)-1H-benzo[d]imidazole] | 3.98 nM
C[C@H](Cn1c(-c2ccc(OCCN3CCNCC3)cc2Cl)nc2c(OC3(C)CC3)ncnc21)c1ccccc1 [Example J9, (S)-8-(2-chloro-4-(2-(piperazin-1-yl)ethoxy)phenyl)-6-(1-methylcyclopropoxy)-9-(2-phenylpropyl)-9H-purine] | 10 nM
CC1(Oc2ncnc3c2nc(-c2ccc(/C=C/C(=O)O)cc2Cl)n3Cc2cccc(Cl)c2)CC1 [Example 31, (E)-3-(3-Chloro-4-(9-(3-chlorobenzyl)-6-(1-methylcyclopropoxy)-9H-purin-8-yl)phenyl)acrylic acid] | 3.16 nM
CC1(Oc2ncnc3c2nc(-c2ccc(OCC(N)=O)cc2Cl)n3Cc2ccccc2)CC1 [Example D27, 2-(4-(9-benzyl-6-(1-methylcyclopropoxy)-9H-purin-8-yl)-3-chlorophenoxy)acetamide] | 7.94 nM
